We go through one compound from PMC6895048, “4,5-Disubstituted 1,2,3-triazoles: Effective Inhibition of Indoleamine 2,3-Dioxygenase 1 Enzyme Regulates T cell Activity and Mitigates Tumor Growth” (Scientific Reports, 2019).

Chains of the proteins cited; added tags and fusions are not shown.
UniProt P14902, whole entry: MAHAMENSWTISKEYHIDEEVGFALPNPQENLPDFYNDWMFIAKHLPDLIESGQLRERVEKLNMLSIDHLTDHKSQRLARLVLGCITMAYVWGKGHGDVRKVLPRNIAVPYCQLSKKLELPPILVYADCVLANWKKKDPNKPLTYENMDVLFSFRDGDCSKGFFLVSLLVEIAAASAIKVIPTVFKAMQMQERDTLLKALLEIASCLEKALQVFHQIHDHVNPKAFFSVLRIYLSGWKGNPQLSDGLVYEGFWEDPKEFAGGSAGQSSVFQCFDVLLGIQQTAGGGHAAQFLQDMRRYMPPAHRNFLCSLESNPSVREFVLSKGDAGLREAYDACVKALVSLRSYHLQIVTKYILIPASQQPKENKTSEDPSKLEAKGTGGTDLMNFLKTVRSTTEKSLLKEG

Experiment [1] has as its target T1, purified human IDO1 enzyme (Homo sapiens, UniProt P14902).
T1 construct: made in house; host or cells: Escherichia coli M15 (pQE30 vector with pREP4 plasmid)
The experiment in a line: IDO1 inhibition assay by the spectrometric method (pDMAB). In kind it is biochemical. The note with it: spectrophotometric method. As to the method: Both IDO1 and TDO inhibition assays were performed according to the reported procedures[26]–[30],[50],[51]. […] In the assay system, the minimum and maximum amount of DMSO was 0.02% and 2%, respectively. […] The concentration of the inhibitors was varied from 100 µM to 32 nM by serial dilution technique. Then, the reaction was quenched with 100 µL of 30% (w/v) trichloroacetic acid and was incubated for further 15 minutes at 65 °C. After that, 2% (w/v) pDMAB was used to quantify the amount of kynurenine formation. The absorbance of the reaction mixture was recorded by UV-Vis spectrophotometer at 480 nm.

For another experiment, the target named is IDO1 (Homo sapiens, UniProt P14902). Put plainly: Cellular IDO1 activity assay in IFN-γ induced MDA-MB-231 cells. Type of experiment: cell-based. Also on record: induce the expression of the native IDO1 enzyme from its mRNA in the MDA-MB-231 cells; endogenous in cells; host or cells: MDA-MB-231 cells induced with human IFN-γ (50 ng/mL). As to the method:
The cellular enzyme activity assay was performed according to the reported procedure with minor modifications[19],[27]–[30],[33],[54]. Briefly, MDA-MB-231 breast cancer cells were selected for this assay because of the presence of IDO1 mRNA in this cell line. First, cells were grown in DMEM/F12 complete media overnight. Then different concentration of human interferon-gamma (IFN-γ) (from 5–1000 ng/mL) was added to it and incubated for 48 hours. This treatment is reported to allow over-expression of IDO1 enzyme in MDA-MB-231 cells. […] Sterile cell-culture grade PBS was used to wash the cells by centrifugation technique. Then, the pellet was lysed in 10 mM HEPES buffer by passing through a sterile syringe. The lysate was used for standard IDO1 assay as mentioned earlier. The relative amount of N-formylkynurenine generated in the presence of the different concentration of IFN-γ was used to optimize the required concentration of IFN-γ for the IDO1 inhibition assay. […] Cells stimulated with IFN-γ alone were used as negative control, while cells stimulated with L-Trp without compound served as positive control. The cells were washed with sterile cell culture grade PBS and lysed in 10 mM HEPES buffer by sterile syringe. The lysate was used for standard IDO1 assay, as mentioned earlier, and the extent of IDO1 enzyme inhibition was determined for the selected compounds.

SMILES strings stand for the structures.

With `Oc1ccc(Cl)cc1-c1c[nH]nn1` [MMG-0358, 4-chloro-2-(1H-1,2,3-triazol-5-yl)phenol], the midpoint of inhibition in experiment [1], the IC50, lay at 0.317 µM. Besides, on IDO1, the half-maximal effective concentration (EC50) came out at 0.12 µM.
